Results published in US9221831B2, “Buprenorphine analogs” (dated 2015).

By UniProt entry, the sequences of proteins in these tests, tags left out.
UniProt P35372, whole entry: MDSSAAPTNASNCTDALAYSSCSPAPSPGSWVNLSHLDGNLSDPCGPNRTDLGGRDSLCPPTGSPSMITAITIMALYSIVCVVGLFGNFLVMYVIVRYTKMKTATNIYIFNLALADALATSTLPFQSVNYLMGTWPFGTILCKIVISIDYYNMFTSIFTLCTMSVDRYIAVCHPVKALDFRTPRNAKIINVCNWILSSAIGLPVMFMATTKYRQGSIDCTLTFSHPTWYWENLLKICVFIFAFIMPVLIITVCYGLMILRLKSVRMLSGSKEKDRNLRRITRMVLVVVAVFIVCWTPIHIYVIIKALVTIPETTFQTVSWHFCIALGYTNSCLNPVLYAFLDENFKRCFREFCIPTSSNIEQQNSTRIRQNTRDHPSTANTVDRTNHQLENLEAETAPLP
UniProt P41146, whole entry: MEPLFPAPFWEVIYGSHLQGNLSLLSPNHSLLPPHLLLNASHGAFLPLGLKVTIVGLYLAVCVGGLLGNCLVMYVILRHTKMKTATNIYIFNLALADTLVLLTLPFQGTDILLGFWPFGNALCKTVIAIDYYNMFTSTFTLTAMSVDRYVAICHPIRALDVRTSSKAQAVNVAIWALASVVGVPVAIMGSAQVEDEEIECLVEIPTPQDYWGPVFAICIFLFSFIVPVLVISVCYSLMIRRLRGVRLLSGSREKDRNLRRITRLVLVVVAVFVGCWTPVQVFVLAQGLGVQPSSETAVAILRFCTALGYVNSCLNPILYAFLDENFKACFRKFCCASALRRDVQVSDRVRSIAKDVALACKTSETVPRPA
UniProt P41145, whole entry: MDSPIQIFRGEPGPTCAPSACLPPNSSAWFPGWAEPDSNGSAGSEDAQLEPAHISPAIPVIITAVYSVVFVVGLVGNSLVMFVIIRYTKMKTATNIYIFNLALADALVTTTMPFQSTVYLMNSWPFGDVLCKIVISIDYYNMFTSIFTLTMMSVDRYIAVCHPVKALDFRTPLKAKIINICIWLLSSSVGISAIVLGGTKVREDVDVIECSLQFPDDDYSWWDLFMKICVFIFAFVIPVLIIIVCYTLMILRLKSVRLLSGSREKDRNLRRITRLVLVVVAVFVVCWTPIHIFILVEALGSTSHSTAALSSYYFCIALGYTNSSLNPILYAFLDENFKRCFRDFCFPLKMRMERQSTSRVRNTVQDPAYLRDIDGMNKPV

Experiments:
μ-opioid receptor = μ-opioid receptor (Homo sapiens (Human), UniProt P35372); assay: μ-opioid receptor functional assay ([35S]GTPγS); conditions: [35S]GTPγS functional assay
δ opioid receptor = δ opioid receptor (Homo sapiens (Human), UniProt P41143); assay: δ-opioid receptor functional assay ([35S]GTPγS); conditions: [35S]GTPγS functional assay
[1] = target: T1, human opioid receptor-like (ORL-1) (Homo sapiens (Human), UniProt P41146); assay: ORL-1 receptor binding assay ([3H]-nociceptin)
κ opioid receptor = κ opioid receptor (Homo sapiens (Human), UniProt P41145); assay: κ-opioid receptor functional assay ([35S]GTPγS); conditions: [35S]GTPγS functional assay
[2] = target: T1, human opioid receptor-like (ORL-1); assay: ORL-1 receptor functional assay ([35S]GTPγS); conditions: [35S]GTPγS functional assay

SMILES	GTPγS Opioid Receptor μ Emax (μ-opioid receptor) [%]	GTPγS Opioid Receptor δ Emax (δ opioid receptor) [%]	Binding Affinity, ORL-1 [1]	GTPγS Opioid Receptor κ Emax (κ opioid receptor) [%]	GTPγS Opioid Receptor μ EC50 (μ-opioid receptor)	GTPγS ORL-1 Emax [2] [%]	GTPγS Opioid Receptor κ EC50 (κ opioid receptor)
COCCOCCOCCOCCOCCOc1ccc2c3c1O[C@H]1[C@@]4(OC)CC[C@@]5(C[C@@H]4COCc4ccccc4)[C@@H](C2)N(CC2CC2)CC[C@]315	56.00	81.00	Inactive	102.67			
CO[C@]12CC[C@@]3(C[C@@H]1COCc1ccccc1)[C@H]1Cc4ccc(N)c5c4[C@@]3(CCN1C)[C@H]2O5		82.33		81.00			
CO[C@]12CC[C@@]3(C[C@@H]1COCc1ccccc1)[C@H]1Cc4ccc(NS(C)(=O)=O)c5c4[C@@]3(CCN1C)[C@H]2O5		117.67		76.67			
CO[C@]12CC[C@@]3(C[C@@H]1COc1ccc(-n4ccnc4)cc1)[C@H]1Cc4ccc(O)c5c4[C@@]3(CCN1C)[C@H]2O5		74.67	Inactive	37.33			
COC(=O)COc1ccc(COC[C@H]2C[C@@]34CC[C@]2(OC)[C@@H]2Oc5c(OC)ccc6c5[C@@]23CCN(CC2CC2)[C@@H]4C6)cc1		47.67	Inactive	11.33	Inactive		
CO[C@]12CC[C@@]3(C[C@@H]1COCc1ccccc1)[C@H]1Cc4ccc(OCC(N)=O)c5c4[C@@]3(CCN1CC1CC1)[C@H]2O5	81.33	104.25		80.67			
CO[C@]12CC[C@@]3(C[C@@H]1COCc1ccccc1)[C@H]1Cc4ccc(C(N)=O)c5c4[C@@]3(CCN1CC1CC1)[C@H]2O5	21.25			87.00			
COc1ccc2c3c1O[C@H]1[C@@]4(OC)CC[C@@]5(C[C@@H]4CSCc4ccccc4)[C@@H](C2)N(CC2CC2)CC[C@]315	19.33	53.00		89.00			
COCCOCCOCCOc1ccc2c3c1O[C@H]1[C@@]4(OC)CC[C@@]5(C[C@@H]4COCc4ccccc4)[C@@H](C2)N(CC2CC2)CC[C@]315	65.50	89.00		95.33			
CCCc1cc(COC[C@H]2C[C@@]34CC[C@]2(OC)[C@@H]2Oc5c(OC)ccc6c5[C@@]23CCN(C)[C@@H]4C6)on1			Inactive	88.00			
COc1ccc2c3c1O[C@H]1[C@@]4(OC)CC[C@@]5(C[C@@H]4COC(=O)[C@@H](N)Cc4ccccc4)[C@@H](C2)N(CC2CC2)CC[C@]315		76.33		74.33	Inactive		
COc1ccc2c3c1O[C@H]1[C@@]4(OC)CC[C@@]5(C[C@@H]4COCc4ccccc4)[C@@H](C2)NCC[C@]315		115.33		89.67		38.00	
COc1ccc2c3c1O[C@H]1[C@@]4(OC)CC[C@@]5(C[C@@H]4CN(Cc4ccccc4)S(C)(=O)=O)[C@@H](C2)N(CC2CC2)CC[C@]315	26.33	49.20		71.67			
COc1ccc2c3c1O[C@H]1[C@@]4(O)CC[C@@]5(C[C@@H]4COCc4ccccc4)[C@@H](C2)N(CC2CC2)CC[C@]315	37.67						
COc1ccc2c3c1O[C@H]1[C@@]4(OC)CC[C@@]5(C[C@@H]4COCc4cccc(NC(N)=O)c4)[C@@H](C2)N(CC2CC2)CC[C@]315		98.33		53.33	Inactive		
CO[C@]12CC[C@@]3(C[C@@H]1COc1ccc(-n4ccnc4)cc1)[C@H]1Cc4ccc(O)c5c4[C@@]3(CCN1CC1CC1)[C@H]2O5		23.33	Inactive		Inactive		Inactive
CO[C@]12CC[C@@]3(C[C@@H]1COCc1ccccc1)[C@H]1Cc4ccc(C(N)=O)c5c4[C@@]3(CCN1C)[C@H]2O5		101.00		87.33			
COc1ccc2c3c1O[C@H]1[C@@]4(OC)CC[C@@]5(C[C@@H]4COC(=O)[C@@H](N)CC(C)C)[C@@H](C2)N(CC2CC2)CC[C@]315	17.00	98.00		57.00			

SMILES	GTPγS Opioid Receptor μ Emax (μ-opioid receptor) [%]	GTPγS Opioid Receptor δ Emax (δ opioid receptor) [%]	Binding Affinity, ORL-1 [1]	GTPγS Opioid Receptor κ Emax (κ opioid receptor) [%]	GTPγS Opioid Receptor μ EC50 (μ-opioid receptor)	GTPγS ORL-1 Emax [2] [%]	GTPγS Opioid Receptor κ EC50 (κ opioid receptor)
COc1ccc2c3c1O[C@H]1[C@@]4(c5ccccc5)CC[C@@]5(C[C@@H]4COCc4ccccc4)[C@@H](C2)N(CC2CC2)CC[C@]315	11.00			89.67			
COCCOCCOCCOCCOCCO[C@]12CC[C@@]3(C[C@@H]1COCc1ccccc1)[C@H]1Cc4ccc(OC)c5c4[C@@]3(CCN1CC1CC1)[C@H]2O5	34.50						
CO[C@]12CC[C@@]3(C[C@@H]1COCc1ccccc1)[C@H]1Cc4ccc(OCc5nn[nH]n5)c5c4[C@@]3(CCN1CC1CC1)[C@H]2O5	73.67	94.67	Inactive	88.00			
CCOC(=O)CC[C@H]1[C@H](COCc2ccccc2)[C@@]23CC[C@]1(OC)[C@@H]1Oc4c(OC)ccc5c4[C@@]12CCN(CC1CC1)[C@@H]3C5	20.83			14.33			
COc1ccc2c3c1O[C@H]1[C@@]4(OC)CC[C@@]5(C[C@@H]4CS(=O)(=O)Cc4ccccc4)[C@@H](C2)N(CC2CC2)CC[C@]315	61.67			65.00			
COc1ccc2c3c1O[C@H]1[C@@]4(OC)CC[C@@]5(C[C@@H]4C[S+]([O-])Cc4ccccc4)[C@@H](C2)N(CC2CC2)CC[C@]315 (stereo partly drawn)	45.33	61.33		97.00			
CO[C@]12CC[C@@]3(C[C@@H]1COC(=O)[C@@H](N)Cc1ccccc1)[C@H]1Cc4ccc(O)c5c4[C@@]3(CCN1CC1CC1)[C@H]2O5		51.25		63.33	Inactive		
COc1ccc2c3c1O[C@H]1[C@@]4(OC)CC[C@@]5(C[C@@H]4C(C)(C)OCc4ccccc4)[C@@H](C2)N(CC2CC2)CC[C@]315	19.75			91.00			
CO[C@]12CC[C@@]3(C[C@@H]1COCc1cc4ccccc4s1)[C@H]1Cc4ccc(OCCO)c5c4[C@@]3(CCN1CC1CC1)[C@H]2O5	25.67	41.25		73.33			
COc1ccc2c3c1O[C@H]1[C@@]4(OC)CC[C@@]5(C[C@@H]4CN(Cc4ccccc4)C(C)=O)[C@@H](C2)N(CC2CC2)CC[C@]315	56.40	71.33		101.33			
CC[C@H](C)[C@H](N)C(=O)OC[C@H]1C[C@@]23CC[C@]1(OC)[C@@H]1Oc4c(O)ccc5c4[C@@]12CCN(CC1CC1)[C@@H]3C5	19.00			18.25			
COCCOCCOCCO[C@]12CC[C@@]3(C[C@@H]1COCc1ccccc1)[C@H]1Cc4ccc(OC)c5c4[C@@]3(CCN1CC1CC1)[C@H]2O5	34.50						
COc1ccc2c3c1O[C@H]1[C@@]4(OC)CC[C@@]5(C[C@@H]4COc4ccc(-n6ccnc6)cc4)[C@@H](C2)N(CC2CC2)CC[C@]315		70.33	Inactive	45.33	Inactive		
CC[C@H](C)[C@H](N)C(=O)OC[C@H]1C[C@@]23CC[C@]1(OC)[C@@H]1Oc4c(OC)ccc5c4[C@@]12CCN(CC1CC1)[C@@H]3C5				52.00	Inactive		
CO[C@]12CC[C@@]3(C[C@@H]1COCc1cccc(NC(=O)c4ccccc4)c1)[C@H]1Cc4ccc(O)c5c4[C@@]3(CCN1CC1CC1)[C@H]2O5				86.00	Inactive		
CO[C@]12CC[C@@]3(C[C@@H]1COC(=O)[C@H](C)N)[C@H]1Cc4ccc(O)c5c4[C@@]3(CCN1CC1CC1)[C@H]2O5				23.25	Inactive		
CCOC(=O)CC[C@H]1[C@H](COCc2ccccc2)[C@]2(OC)CC[C@]13[C@H]1Cc4ccc(OC)c5c4[C@@]3(CCN1CC1CC1)[C@H]2O5	26.60			10.83			
